Antibody variant affinities, Ab-14 light chain, assay B

Antigen: PDVDLGDISGINAS, a 14-residue peptide of the SARS-CoV-2 spike HR2 region.

Ab-14 is the parent antibody, in scFv form: VH, then a (GGGGS)3 linker, then VL. The heavy chain is unchanged in all variants.
VH: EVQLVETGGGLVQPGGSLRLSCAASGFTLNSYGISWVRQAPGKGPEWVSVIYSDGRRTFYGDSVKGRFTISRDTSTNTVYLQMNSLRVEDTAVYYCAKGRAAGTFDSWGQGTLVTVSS
VL: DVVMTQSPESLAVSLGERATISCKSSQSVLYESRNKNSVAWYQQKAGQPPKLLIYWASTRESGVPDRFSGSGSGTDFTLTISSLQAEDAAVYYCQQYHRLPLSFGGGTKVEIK

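The starting antibody came from a phage panning campaign against this peptide. These sequences belong to a second round, designed from the earlier measurements on random variants of the parent. Several design methods are mixed in this list. The scFvs were displayed on barcoded MATa yeast, the peptide on MATalpha yeast. Binding brings cells together so that they mate, and sequencing counts the barcode pairs among the diploids. A regression on co-assayed BCL2-family reference pairs converts the normalised counts of each replicate to an apparent Kd. Each pool was mated in six replicate cultures.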

Variants are written as CDR1, CDR2 and CDR3 of the light chain (limits as in the source). Parent: KSSQSVLYESRNKNSVA, WASTRES, QQYHRLPLS. Scale: log10 of Kd in nM, estimated from mating counts; low values are strong binders. Averages over replicates are reported, and they cover detected replicates only. "no signal" marks a missing value. The strain was present, yet no cells mated with the target were sequenced in any replicate, which points to weak or no binding. Order: sorted from the lowest average up, undetected variants last. Three control strains display no target. For all light chain designs, 4% of the pairings with them gave a signal, with a median of 2.64 and one signal in twenty below 1.59, so weak values seen in few replicates may be background. Also given: how often the same scFv was detected with the empty control strains. A sequence measured in both rounds can read differently, since the two assays cover different ranges. The authors' rule: three or more of the six replicates give a measured affinity, fewer mean a poor binder. The parent sequence was in this pool as ten entries: three were never detected, three once, and four in most replicates, with averages from 0.34 to 2.37.

{"CDR-L1": "TISDVMGHLTRAHNNVA", "CDR-L2": "DMDTRGD", "CDR-L3": "QQYNRLPLS", "log10 Kd (nM), mean": "-0.47", "replicates with signal": "6 of 6", "empty controls": "0 of 18"}
{"CDR-L1": "KLSQSVLYESRMPNSVA", "CDR-L2": "NASTRES", "CDR-L3": "QQYHRLPLS", "log10 Kd (nM), mean": "-0.39", "replicates with signal": "6 of 6", "empty controls": "1 of 18"}
{"CDR-L1": "KLSQSVLMESRNKNSVA", "CDR-L2": "DASTRES", "CDR-L3": "QQYHRLPLS", "log10 Kd (nM), mean": "-0.25", "replicates with signal": "6 of 6", "empty controls": "0 of 18"}
{"CDR-L1": "KLSASQLYQSRNSNAVA", "CDR-L2": "NASTRMS", "CDR-L3": "QQYHRLPLS", "log10 Kd (nM), mean": "-0.13", "replicates with signal": "6 of 6", "empty controls": "2 of 18"}
{"CDR-L1": "KLSSITGTEKVHGNNVA", "CDR-L2": "EMETRER", "CDR-L3": "QQYNRLPLS", "log10 Kd (nM), mean": "0.10", "replicates with signal": "6 of 6", "empty controls": "0 of 18"}
{"CDR-L1": "KISQMVRVGSTHSNSIA", "CDR-L2": "EEATRAD", "CDR-L3": "QQYHRLPLS", "log10 Kd (nM), mean": "0.11", "replicates with signal": "6 of 6", "empty controls": "3 of 18"}
{"CDR-L1": "KSSWSVLYESRNKNNVA", "CDR-L2": "DASTRES", "CDR-L3": "QQYHRLPLS", "log10 Kd (nM), mean": "0.16", "replicates with signal": "6 of 6", "empty controls": "1 of 18"}
{"CDR-L1": "KLYQAMGYLSHNKNSIA", "CDR-L2": "DMSRREN", "CDR-L3": "QQYHRLPLS", "log10 Kd (nM), mean": "0.24", "replicates with signal": "6 of 6", "empty controls": "2 of 18"}
{"CDR-L1": "KLRQSTKYESRNQNSVA", "CDR-L2": "GASTRES", "CDR-L3": "QQYHRLPLS", "log10 Kd (nM), mean": "0.27", "replicates with signal": "6 of 6", "empty controls": "1 of 18"}
{"CDR-L1": "HITYGMMVAGRHSSSIA", "CDR-L2": "QAEERAK", "CDR-L3": "QQYDRLPLA", "log10 Kd (nM), mean": "0.28", "replicates with signal": "6 of 6", "empty controls": "2 of 18"}
{"CDR-L1": "KISQSVMYESRNKNSVA", "CDR-L2": "EASTRES", "CDR-L3": "QQYHRLPLS", "log10 Kd (nM), mean": "0.30", "replicates with signal": "6 of 6", "empty controls": "0 of 18"}
{"CDR-L1": "TISQMTSLFSQSINNVA", "CDR-L2": "EVSTREK", "CDR-L3": "QQYDRLPLA", "log10 Kd (nM), mean": "0.58", "replicates with signal": "6 of 6", "empty controls": "3 of 18"}
{"CDR-L1": "KVSQSYGYESNNSNSVA", "CDR-L2": "NASQREH", "CDR-L3": "QQYHRLPLS", "log10 Kd (nM), mean": "0.59", "replicates with signal": "6 of 6", "empty controls": "0 of 18"}
{"CDR-L1": "HSSQSVGTESRNKNSVA", "CDR-L2": "HASTRES", "CDR-L3": "QQYHRLPLS", "log10 Kd (nM), mean": "0.80", "replicates with signal": "6 of 6", "empty controls": "0 of 18"}
{"CDR-L1": "TIAQSMVYLSNLKNSIA", "CDR-L2": "QAETRES", "CDR-L3": "QQYHRLPIS", "log10 Kd (nM), mean": "0.91", "replicates with signal": "6 of 6", "empty controls": "0 of 18"}
{"CDR-L1": "HLLQTVMWGQTRKNSVA", "CDR-L2": "HAVTREN", "CDR-L3": "QQYHRLPLS", "log10 Kd (nM), mean": "1.08", "replicates with signal": "6 of 6", "empty controls": "1 of 18"}
{"CDR-L1": "KSSQSVLYDSANKNSVA", "CDR-L2": "WASTRES", "CDR-L3": "QQYHRLPLS", "log10 Kd (nM), mean": "1.19", "replicates with signal": "6 of 6", "empty controls": "2 of 18"}
{"CDR-L1": "KSAQSVLYESNNKNSVA", "CDR-L2": "WASTRES", "CDR-L3": "QQYHRLPLS", "log10 Kd (nM), mean": "1.24", "replicates with signal": "4 of 6", "empty controls": "0 of 18"}
{"CDR-L1": "KSGCGVLYEGRNKNSVA", "CDR-L2": "GASTRES", "CDR-L3": "QNYHRLPLS", "log10 Kd (nM), mean": "1.33", "replicates with signal": "6 of 6", "empty controls": "1 of 18"}
{"CDR-L1": "TIGQTLMYGMRNRSNVA", "CDR-L2": "EVSERLN", "CDR-L3": "QQYDRLPLM", "log10 Kd (nM), mean": "1.38", "replicates with signal": "6 of 6", "empty controls": "1 of 18"}
{"CDR-L1": "KSSQSVLYEGRNKNSVA", "CDR-L2": "WASTRVS", "CDR-L3": "QQYHRLPLS", "log10 Kd (nM), mean": "1.58", "replicates with signal": "6 of 6", "empty controls": "0 of 18"}
{"CDR-L1": "SLSEMEAGWDAANKSIA", "CDR-L2": "ASILMME", "CDR-L3": "QQYHRLPLA", "log10 Kd (nM), mean": "2.16", "replicates with signal": "2 of 6", "empty controls": "0 of 18"}
{"CDR-L1": "KFSQSVLYESRTKNSVA", "CDR-L2": "NASTRES", "CDR-L3": "QQYHFHPLW", "log10 Kd (nM), mean": "2.48", "replicates with signal": "2 of 6", "empty controls": "0 of 18"}
{"CDR-L1": "TIGGTLMFGSRNRSNVA", "CDR-L2": "EVSERLN", "CDR-L3": "QQYDRLPLI", "log10 Kd (nM), mean": "2.85", "replicates with signal": "2 of 6", "empty controls": "2 of 18"}
{"CDR-L1": "NFYMDAAEFVNEDESIA", "CDR-L2": "DAEISYD", "CDR-L3": "QQYHRLPLV", "log10 Kd (nM), mean": "3.97", "replicates with signal": "1 of 6", "empty controls": "0 of 18"}
{"CDR-L1": "MLSQMWALGMKAKNSVA", "CDR-L2": "QASMRFN", "CDR-L3": "QQYDRLPLI", "log10 Kd (nM), mean": "no signal", "replicates with signal": "0 of 6", "empty controls": "0 of 18"}
{"CDR-L1": "KLSQSMLYESRNKNSVA", "CDR-L2": "EASTREV", "CDR-L3": "QQYHRLPLS", "log10 Kd (nM), mean": "no signal", "replicates with signal": "0 of 6", "empty controls": "0 of 18"}
{"CDR-L1": "KIDGQRSYQGGRERAIA", "CDR-L2": "DVTIRFR", "CDR-L3": "QQYARLPLV", "log10 Kd (nM), mean": "no signal", "replicates with signal": "0 of 6", "empty controls": "0 of 18"}

The closing 3 entries, repeated:

| CDR-L1 | CDR-L2 | CDR-L3 | log10 Kd (nM), mean | replicates with signal | empty controls |
|---|---|---|---|---|---|
| MLSQMWALGMKAKNSVA | QASMRFN | QQYDRLPLI | no signal | 0 of 6 | 0 of 18 |
| KLSQSMLYESRNKNSVA | EASTREV | QQYHRLPLS | no signal | 0 of 6 | 0 of 18 |
| KIDGQRSYQGGRERAIA | DVTIRFR | QQYARLPLV | no signal | 0 of 6 | 0 of 18 |

Data: MIT Lincoln Laboratory AlphaSeq set, Li et al. 2023, doi:10.1038/s41467-023-39022-2, as distributed in FLAb.